Measured values reported in patent publication US20080138437A1, “Antitumor Agent” (priority 2004, published 2008).

Assay: in vivo
Settings: male, C57BL/6, mouse, po
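Further: mice given a single dose and followed for 14 days, with deaths tallied, LD50 derived from the doses given and the resulting death counts.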

For `CC(C)COC(=O)OCN1C(=O)CN(CCN2CC(=O)N(COC(=O)OCC(C)C)C(=O)C2)CC1=O` [Sobuzoxane], the LD50 was 853 mg/kg.
